From IntAct's records for PubMed 31169361 come the findings set out here.

First the molecules themselves.
B1: Nuclear factor erythroid 2-related factor 2 (Homo sapiens), Q16236 (parent)
chain: MMDLELPPPGLPSQQDMDLIDILWRQDIDLGVSREVFDFSQRRKEYELEKQKKLEKERQEQLQKEQEKAFFAQLQLDEETGEFLPIQPAQHIQSETSGSANYSQVAHIPKSDALYFDDCMQLLAQTFPFVDDNEVSSATFQSLVPDIPGHIESPVFIATNQAQSPETSVAQVAPVDLDGMQQDIEQVWEELLSIPELQCLNIENDKLVETTMVPSPEAKLTEVDNYHFYSSIPSMEKEVGNCSPHFLNAFEDSFSSILSTEDPNQLTVNSLNSDATVNTDFGDEFYSAFIAEPSISNSMPSPATLSHSLSELLNGPIDVSDLSLCKAFNQNHPESTAEFNDSDSGISLNTSPSVASPEHSVESSSYGDTLLGLSDSEVEELDSAPGSVKQNGPKTPVHSSGDMVQPLSPSQGQSTHVHDAQCENTPEKELPVSPGHRKTPFTKDKHSSRLEAHLTRDELRAKALHIPFPVEKIINLPVVDFNEMMSKEQFNEAQLALIRDIRRRGKNKVAAQNCRKRKLENIVELEQDLDHLKDEKEKLLKEKGENDKSLHLLKKQLSTLYLEVFSMLRDEDGKPYSPSEYSLQQTRDGNVFLVPKSKKPDVKKN

The variants in this assay derive from B1. The settings on record: with keap1_human KEAP1, Q14145.
As for D77A;E79A, the “effect of a mutation on the interaction” value is given as “disrupting interaction strength”.
